Measured values taken from patent publication US20240400553A1, “AMINE BASED MATRIPTASE 2 INHIBITORS AND USES THEREOF” (Disc Medicine, Inc., priority 2023, published 2024).

Sequences of proteins named here, by UniProt entry; tags and fusion partners are left off.
UniProt Q8IU80, whole entry: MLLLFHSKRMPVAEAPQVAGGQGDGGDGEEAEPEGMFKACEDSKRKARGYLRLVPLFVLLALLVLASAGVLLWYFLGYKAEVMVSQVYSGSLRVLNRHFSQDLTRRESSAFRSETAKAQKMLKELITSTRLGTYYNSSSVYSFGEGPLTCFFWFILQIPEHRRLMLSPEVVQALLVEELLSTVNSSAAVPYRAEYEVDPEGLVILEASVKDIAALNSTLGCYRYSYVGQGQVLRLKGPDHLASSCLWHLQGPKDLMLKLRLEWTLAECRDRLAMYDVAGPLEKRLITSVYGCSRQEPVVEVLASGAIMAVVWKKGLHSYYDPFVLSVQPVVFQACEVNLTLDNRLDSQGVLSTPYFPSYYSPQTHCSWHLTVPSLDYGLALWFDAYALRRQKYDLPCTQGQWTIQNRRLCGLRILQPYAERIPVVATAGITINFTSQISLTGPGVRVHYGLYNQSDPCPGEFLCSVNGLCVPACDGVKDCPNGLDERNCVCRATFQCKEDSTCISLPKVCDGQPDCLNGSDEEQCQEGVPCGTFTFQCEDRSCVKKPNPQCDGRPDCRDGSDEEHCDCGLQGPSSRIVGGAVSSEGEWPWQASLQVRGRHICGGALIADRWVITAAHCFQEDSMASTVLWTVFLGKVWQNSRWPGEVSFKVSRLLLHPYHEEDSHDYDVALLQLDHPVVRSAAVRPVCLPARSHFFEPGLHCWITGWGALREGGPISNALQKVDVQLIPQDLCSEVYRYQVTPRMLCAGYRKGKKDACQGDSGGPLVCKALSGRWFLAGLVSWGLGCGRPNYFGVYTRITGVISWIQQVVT

Biological target: Human Recombinant Matriptase 2 (Homo sapiens, UniProt Q8IU80)
Test: Matriptase 2 inhibition, fluorescence based assay (Method I)
Settings: read-out: Mat-2 Ki; Table A; Ki of Matriptase-2 given as class symbols
Experimental: • Method I: Test compounds were evaluated for their potential to inhibit Human Recombinant Matriptase 2 (in-house) using fluorescence based assay. The concentration of Recombinant Matriptase 2 and the substrate used in the assay was: 3.5 nM (In-house Matriptase 2) and 62 μM (Boc-Gln-Ala-Arg-7-amido-4-methyl coumarin hydrobromide −Cat log: I-1550 from Bachem) respectively. The assay buffer used was 50 mM TRIS pH 7.5, 150 mM NaCl, 0.01% Gelatin TCL059 Himedia). The assay was performed using 384 well black flat bottom plate from grenier (Cat log: 781076) at 25° C. The enzyme and compound were preincubated for 30 mins, the plate was read at 60 mins after substrate addition at wavelength Ex: 360/Em: 480 nm. The final assay volume was 20 μl. A stock solution of compounds was initially prepared in DMSO and appropriate dilutions were made and IC50 was determined for all the compounds (final DMSO conc in the assay was 1%). All the measurements were carried out using the Spectramax M5, Molecular devices.
To determine Ki values, dose response curves were generated by plotting percentage inhibition as a function of inhibitor concentration and the data was fitted to sigmoidal non-linear regression equation (variable slope) using Graph Pad prism software V8.

## NCc1ccc2cc(C(=O)N[C@H]3CC[C@H](N)CC3)n(Cc3cccc4ccccc34)c2n1
  Ki: 500 to 3000 nM
